From ChEMBL document CHEMBL2380260, “Structure-activity relationship of N,N'-disubstituted pyrimidinetriones as Ca(V)1.3 calcium channel-selective antagonists for Parkinson's disease” (J Med Chem, 2013) come the findings set out here.

Bounds are passed on as bounds.

The nature of the assay: Selectivity ratio of IC50 for rabbit CaV1.2alpha1C to IC50 for rat CaV1.3alpha1D. The gist of the method:
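Selectivity is defined as […] the ratio of the CaV1.2 IC50 to the CaV1.3 IC50. Both IC50s come from the Fluo-8 FLIPR calcium influx assay in stably transfected HEK293 cells, each run in triplicate and fitted to a one-site sigmoidal model.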
With `CC1(C)CCC[C@H]1N1C(=O)CC(=O)N(CCc2ccc(Cl)cc2)C1=O`, the Ratio IC50 is 1.

For the compound `O=C1CC(=O)N(C2CC3CCC2C3)C(=O)N1CCc1cc(Cl)cc(Cl)c1` (racemic), the Ratio IC50 amounted to 1.7.

For the compound `CC(C)(CN1C(=O)CC(=O)N(C2CCCC2)C1=O)c1cccc(C(F)(F)F)c1`, the Ratio IC50 amounted to 1.9.

With `C[C@H](C1CCCCC1)N1C(=O)CC(=O)N(CCc2cccc(Cl)c2)C1=O`, the Ratio IC50 was above 10.

On to `COC(=O)[C@@H](Cc1ccccc1)N1C(=O)CC(=O)N(C2CCCC2)C1=O`, for which the Ratio IC50 worked out at 0.8.

For the compound `C[C@@H](C1CCCCC1)N1C(=O)CC(=O)N(CCc2cccc(Cl)c2)C1=O`, the Ratio IC50 was above 29.

As to `CCOC(=O)[C@@H]1CCC[C@@H]1N1C(=O)CC(=O)N(CCc2cccc(Cl)c2)C1=O`, the Ratio IC50 is 1.

`C[C@H]1CCCC[C@H]1N1C(=O)CC(=O)N(CCc2ccc(Cl)cc2)C1=O`: the Ratio IC50 was 1.4.

Take `C[C@@H]1[C@@H](N2C(=O)CC(=O)N(CCc3ccc(Cl)cc3)C2=O)C[C@H]2C[C@@H]1C2(C)C`: the Ratio IC50 was found to be 1.3.

Consider `CC1CCC(N2C(=O)CC(=O)N(CCc3ccc(Cl)cc3)C2=O)C1` (stereo not drawn), for which the Ratio IC50 amounted to 2.1.

In the case of `CO[C@H]1CCC[C@@H]1N1C(=O)CC(=O)N(CCc2cccc(Cl)c2)C1=O`, the Ratio IC50 worked out at 1.1.

As for `C[C@H](c1cccc2ccccc12)N1C(=O)CC(=O)N(CCc2cccc(Cl)c2)C1=O`, the Ratio IC50 worked out at 0.9.

With `C[C@@H]1CCC[C@@H]1N1C(=O)CC(=O)N(CCc2ccc(Cl)cc2)C1=O`, the Ratio IC50 came out at 1.7.

Turning to `O=C1CC(=O)N(C2CCCc3ccccc32)C(=O)N1C1CCCC1` (stereo not drawn), the Ratio IC50 turned out to be 1.

Take `O=C1CC(=O)N(C2CCCC2)C(=O)N1CCc1ccc(-c2ccccc2)cc1`: the Ratio IC50 was found to be 1.2.

In the case of `CC(C)C(=O)O[C@H]1CCC[C@@H]1N1C(=O)CC(=O)N(CCc2cccc(Cl)c2)C1=O`, the Ratio IC50 is 0.9.

`COC(=O)C(Cc1ccc(Cl)cc1)N1C(=O)CC(=O)N(C2CCCC2)C1=O` (stereo not drawn): the Ratio IC50 came to 1.8.

In the case of `CC1(C)CCC[C@H]1N1C(=O)CC(=O)N(CCc2cccc(C(F)(F)F)c2)C1=O`, the Ratio IC50 was found to be 1.2.

On to `CC1(C)[C@@H]2CC[C@H](CN3C(=O)CC(=O)N(CCc4cccc(Cl)c4)C3=O)[C@H]1C2`, for which the Ratio IC50 was 1.2.

As to `CC(C)OC(=O)[C@H]1CC[C@@H](N2C(=O)CC(=O)N(CCc3cccc(Cl)c3)C2=O)C1`, the Ratio IC50 was found to be 0.8.

Consider `O=C1CC(=O)N([C@@H]2C[C@@H]3CC[C@H]2C3)C(=O)N1CCc1cccc(C(F)(F)F)c1`, for which the Ratio IC50 turned out to be 36.

Consider `CCC(CC)N1C(=O)CC(=O)N(CCc2cccc(Cl)c2)C1=O`, for which the Ratio IC50 came to 2.2.

As for `O=C1CC(=O)N(C2CCCC2)C(=O)N1CCc1cc(Cl)cc(Cl)c1`, the Ratio IC50 worked out at 2.3.

For the compound `O=C1CC(=O)N(C2CCCC2)C(=O)N1CCc1cccc(Cl)c1`, the Ratio IC50 is above 100.

In the case of `CC1CCC(N2C(=O)CC(=O)N(CCc3cccc(Cl)c3)C2=O)C1` (stereo not drawn), the Ratio IC50 came to 10.

On to `O=C1CC(=O)N(C2CCc3ccccc32)C(=O)N1C1CCCC1` (stereo not drawn), for which the Ratio IC50 is 1.2.

For `O=C1CC(=O)N(C2CC3CCC2C3)C(=O)N1CCc1cccc(C(F)(F)F)c1` (racemic), the Ratio IC50 came to 40.8.

Turning to `C[C@@H]1[C@@H](C)CC[C@@H]1N1C(=O)CC(=O)N(CCc2cccc(Cl)c2)C1=O`, the Ratio IC50 amounted to 4.3.

In the case of `C[C@H](c1cccc2ccccc12)N1C(=O)CC(=O)N(C2CCCC2)C1=O`, the Ratio IC50 amounted to 1.3.

As for `C[C@H]1CCCC[C@H]1N1C(=O)CC(=O)N(CCc2cccc(Cl)c2)C1=O`, the Ratio IC50 was found to be 1.

In the case of `O=C1CC(=O)N(C2Cc3ccccc3C2)C(=O)N1C1CCCC1`, the Ratio IC50 was 1.1.

Turning to `COC(=O)C1(N2C(=O)CC(=O)N(CCc3cccc(Cl)c3)C2=O)CCCC1`, the Ratio IC50 was 1.1.

Take `CC1(C)CCC[C@@H]1N1C(=O)CC(=O)N(CCc2ccc(Cl)cc2)C1=O`: the Ratio IC50 is 1.4.

In the case of `CC(C)C(=O)OCC1(N2C(=O)CC(=O)N(CCc3cccc(Cl)c3)C2=O)CCCC1`, the Ratio IC50 stood at 0.9.

As for `CC(C)(CN1C(=O)CC(=O)N(C2CC3CCC2C3)C1=O)c1cccc(Cl)c1` (mixture of isomers), the Ratio IC50 was found to be 1.2.

In the case of `O=C1CC(=O)N(C2CC3CCC2C3)C(=O)N1CCc1cc(C(F)(F)F)cc(C(F)(F)F)c1` (mixture of isomers), the Ratio IC50 amounted to 2.2.

With `CC(CN1C(=O)CC(=O)N(C2CCCC2)C1=O)c1cccc(Cl)c1` (stereo not drawn), the Ratio IC50 was determined as 5.

In the case of `CC1(C)CCC(N2C(=O)CC(=O)N(CCc3cccc(Cl)c3)C2=O)C1` (stereo not drawn), the Ratio IC50 is 7.7.

Turning to `CC(CN1C(=O)CC(=O)N(C2CC3CCC2C3)C1=O)c1ccc(Cl)cc1` (racemic), the Ratio IC50 was 2.4.

In the case of `O=C1CC(=O)N(C2CCCC2)C(=O)N1CCC(c1ccccc1)c1ccccc1`, the Ratio IC50 was 1.2.

Consider `CC1CCC(N2C(=O)CC(=O)N(CCc3ccc(Cl)cc3)C2=O)CC1` (stereo not drawn), for which the Ratio IC50 stood at 2.7.

With `O=C(OCc1ccccc1)N1CC[C@H](N2C(=O)CC(=O)N(CCc3cccc(Cl)c3)C2=O)C1`, the Ratio IC50 stood at 0.7.

As to `CC(=O)OCC1(N2C(=O)CC(=O)N(CCc3cccc(Cl)c3)C2=O)CCCC1`, the Ratio IC50 was found to be 0.7.

`C[C@H]1CCC[C@@H]1N1C(=O)CC(=O)N(CCc2ccc(Cl)cc2)C1=O` (racemic): the Ratio IC50 amounted to 3.3.

In the case of `O=C1CC(=O)N(C2CCCC2)C(=O)N1Cc1cccc(Cl)c1`, the Ratio IC50 was 1.1.

Regarding `CCC1CCC(N2C(=O)CC(=O)N(CCc3ccc(Cl)cc3)C2=O)C1` (racemic), the Ratio IC50 was found to be 4.4.

In the case of `CCC1CCC(N2C(=O)CC(=O)N(CCc3cccc(Cl)c3)C2=O)C1` (stereo not drawn), the Ratio IC50 amounted to 2.

Take `C[C@H]1CCC[C@H]1N1C(=O)CC(=O)N(CCc2ccc(Cl)cc2)C1=O`: the Ratio IC50 turned out to be 3.7.

In the case of `CC(Cc1ccc(Cl)cc1)N1C(=O)CC(=O)N(C2CC3CCC2C3)C1=O` (racemic), the Ratio IC50 worked out at 1.1.

Consider `O=C1CC(=O)N(C2CCCC2)C(=O)N1Cc1ccc(Cl)cc1`, for which the Ratio IC50 was 2.9.

In the case of `CC1CCC(N2C(=O)CC(=O)N(CCc3cccc(Cl)c3)C2=O)CC1` (stereo not drawn), the Ratio IC50 was 1.3.

For the compound `CC1(C)CCC(N2C(=O)CC(=O)N(CCc3ccc(Cl)cc3)C2=O)C1` (stereo not drawn), the Ratio IC50 was 6.8.

As to `CC(C)c1ccc(CCN2C(=O)CC(=O)N(C3CCCC3)C2=O)cc1`, the Ratio IC50 amounted to 1.5.
